# Patent publication US20150030697, “Treatments for gastrointestinal disorders” (published 2015)
# T1: Peptide 1
# T1 chain: CCSLCCNPACTGCY
# T2: Peptide 2
# T2 chain: CCSLCCNPACTGC
# T3: Peptide 3
# T3 chain: CCELCCNPACTGCY
# B1: Human prostate acid phosphatase (HuPrAP) (protein)
# chain: KELKFVTLVFRHGDRSPIDTFPTDPIKESSWPQGFGQLTQLGMEQHYELGEYIRKRYRKFLNESYKHEQVYIRSTDVDRTLMSAMTNLAALFPPEGVSIWNPILLWQPIPVHTVPLSEDQLLYLPFRNCPRFQELESETLKSEEFQKRLHPYKDFIATLGKLSGLHGQDLFGIWSKVYDPLYCESVHNFTLPSWATEDTMTKLRELSELSLLSLYGIHKQKEKSRLQGGVLVNEILNHMKRATQIPSYKKLIMYSAHDTTVSGLQMALDVYNGLLPPYASCHLTELYFEKGEYFVEMYYRNETQHEPYPLMLPGCSPSCPLERFAELVGPVIPQDWSTECMTTNSHQGTEDSTD
# B2: Calf intestinal alkaline phosphatase (CIP) (protein)
# chain: LVPVEEEDPAFWNRQAAQALDVAKKLQPIQTAAKNVILFLGDGMGVPTVTATRILKGQMNGKLGPETPLAMDQFPYVALSKTYNVDRQVPDSAGTATAYLCGVKGNYRTIGVSAAARYNQCKTTRGNEVTSVMNRAKKAGKSVGVVTTTRVQHASPAGAYAHTVNRNWYSDADLPADAQMNGCQDIAAQLVNNMDIDVILGGGRKYMFPVGTPDPEYPDDASVNGVRKRKQNLVQAWQAKHQGAQYVWNRTALLQAADDSSVTHLMGLFEPADMKYNVQQDHTKDPTLQEMTEVALRVVSRNPRGFYLFVEGGRIDHGHHDDKAYMALTEAGMFDNAIAKANELTSELDTLILVTADHSHVFSFGGYTLRGTSIFGLAPSKALDSKSYTSILYGNGPGYALGGGSRPDVNDSTSEDPSYQQQAAVPQASETHGGEDVAVFARGPQAHLVHGVEEETFVAHIMAFAGCVEPYTDCNLPAPTTATSIPD
# Columns and labels:
# Peptide 1 = target: T1, Peptide 1
# Peptide 2 = target: T2, Peptide 2
# Peptide 3 = target: T3, Peptide 3
Protein,"Peptide 1 Dephospho (%), LC-MS after phosphatase treatment, pH 5 (Peptide 1)","Peptide 1 Remaining (%), LC-MS after phosphatase treatment, pH 5 (Peptide 1)","Peptide 2 Dephospho (%), LC-MS after phosphatase treatment, pH 5 (Peptide 2)","Peptide 2 Remaining (%), LC-MS after phosphatase treatment, pH 5 (Peptide 2)","Peptide 1 Dephospho (%), LC-MS after phosphatase treatment, pH 8 (Peptide 1)","Peptide 2 Dephospho (%), LC-MS after phosphatase treatment, pH 8 (Peptide 2)","Peptide 2 Remaining (%), LC-MS after phosphatase treatment, pH 8 (Peptide 2)",LC-MS after treatment with and without calf intestinal alkaline phosphatase (Peptide 3)
B1,6.2%,93.8%,4.1%,95.9%,–,–,–,–
B2,–,–,–,–,100%,100%,0%,Peptide 3 was not affected by CIP treatment (data not shown)
